According to PubChem BioAssay AID1620 (Sanford-Burnham Center for Chemical Genomics, 2009):
Active and inactive are the calls of the source.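 Rule for the calls: active = toxicity graded low, moderate or high, meaning less radioactive sulfur built into protein than in solvent-only controls; inactive = the rest.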

System: HeLa, 35S-Met/Cys protein incorporation toxicity, 3 h
Test: HeLa cytotoxicity by protein synthesis, late-stage follow-up, cytotoxicity control for PMI inhibitor project, HeLa cells (AID 1620)

O=P(Nc1nccs1)(c1ccccc1)c1nc2ccccc2s1 (stereo unspecified)
outcome: active; low toxicity
